Here are results for 93 compounds from PubChem BioAssay AID540263 (National Center for Advancing Translational Sciences (NCATS), 2011).

The chains behind the UniProt entries cited, without tags or fusion partners.
UniProt Q14974, whole entry: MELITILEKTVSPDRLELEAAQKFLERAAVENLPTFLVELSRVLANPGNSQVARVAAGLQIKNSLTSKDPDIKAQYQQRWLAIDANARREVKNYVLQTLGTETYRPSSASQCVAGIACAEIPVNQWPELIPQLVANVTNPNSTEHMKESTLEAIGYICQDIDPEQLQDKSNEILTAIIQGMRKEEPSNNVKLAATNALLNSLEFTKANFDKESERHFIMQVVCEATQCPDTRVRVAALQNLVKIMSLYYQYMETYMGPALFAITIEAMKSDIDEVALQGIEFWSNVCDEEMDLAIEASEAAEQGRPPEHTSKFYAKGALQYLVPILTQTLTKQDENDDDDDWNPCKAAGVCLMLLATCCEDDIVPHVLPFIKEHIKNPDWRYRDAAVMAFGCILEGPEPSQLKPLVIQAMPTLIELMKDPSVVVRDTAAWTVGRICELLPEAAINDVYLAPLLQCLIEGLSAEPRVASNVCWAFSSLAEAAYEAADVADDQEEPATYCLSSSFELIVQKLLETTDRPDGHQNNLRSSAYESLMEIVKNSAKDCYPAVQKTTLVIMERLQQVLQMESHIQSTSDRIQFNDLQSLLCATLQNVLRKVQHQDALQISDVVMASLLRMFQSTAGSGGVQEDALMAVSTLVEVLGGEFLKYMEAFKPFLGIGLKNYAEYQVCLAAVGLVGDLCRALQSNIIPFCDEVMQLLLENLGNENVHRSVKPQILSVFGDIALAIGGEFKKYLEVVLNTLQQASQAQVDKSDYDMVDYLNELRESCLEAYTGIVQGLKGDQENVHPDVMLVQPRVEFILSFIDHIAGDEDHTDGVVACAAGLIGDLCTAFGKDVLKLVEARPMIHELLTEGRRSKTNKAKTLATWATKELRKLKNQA
UniProt O95149, whole entry partner: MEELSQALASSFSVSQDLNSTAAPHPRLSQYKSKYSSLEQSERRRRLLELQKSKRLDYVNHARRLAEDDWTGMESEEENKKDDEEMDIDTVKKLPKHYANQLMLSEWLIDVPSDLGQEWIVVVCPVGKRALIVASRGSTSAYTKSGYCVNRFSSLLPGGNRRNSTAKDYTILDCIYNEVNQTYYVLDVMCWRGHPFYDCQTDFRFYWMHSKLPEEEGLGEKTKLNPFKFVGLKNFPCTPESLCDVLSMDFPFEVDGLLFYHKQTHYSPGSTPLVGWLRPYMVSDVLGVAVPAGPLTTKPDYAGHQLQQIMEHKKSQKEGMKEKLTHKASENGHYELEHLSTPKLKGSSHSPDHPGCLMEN

The structures appear in SMILES notation. This is one part of the list. Inconclusive results are not listed. Activity calls are given as the source filed them. Calls come from the whole dose curve.

The assay deals with Importin subunit beta-1 (Homo sapiens) (UniProt Q14974). Nature of the assay: qHTS Assay for Inhibitors of Rango (Ran-regulated importin-beta cargo) - Importin beta complex formation.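 Note: 0% = DMSO wells and 100% = buffer wells lacking importin beta; nearly all actives have a fitted effect of over 15% in size.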 As to conditions: Rango CFP/YFP FRET sensor + importin beta, 45 min; at 92.2 µM (top of the series). The source says: NIH Molecular Libraries Probe Production Centers Network [MLPCN] NIH Chemical Genomics Center [NCGC] MLPCN Grant: R03 MH090808-01A1 Assay Submitter (PI): Petr Kalab NCGC Assay Overview: The small GTPase Ran regulates transport of macromolecules between the nucleus and the cytoplasm (nuclear transport) and has important functions in mitotic spindle assembly, nuclear envelope (NE) formation and nuclear pore complex (NPC) assembly. RanGTP gradient is thought to promote spindle assembly by providing a spatial clue to microtubule nucleation and Aurora A activation. Because the localized release and binding of importin alpha cargo relays this spatial clue to SAFs, inhibitors of the Rango - importin beta complex can then be used in further understanding their role in cell cycle specifically in mitosis progression. […] Activation of Aurora A has been linked to different types of cancer and a number of Aurora kinase inhibitors are being developed as potential canter therapeutics therefore, identified inhibitors of this complex could be developed into potential anti-mitotic probes for cancer treatment. Purified recombinant proteins Rango and importin beta were provided by the assay submitter. The assay used a fluorescence resonance energy transfer (FRET) Rango biosensor that contains the IBB of human snurportin 1 flanked by yellow fluorescent protein (EYFP) at the amino terminus and cerulean CFP10 at the carboxy terminus. […] Inhibitors will therefore be identified based on the ability to interfere with the FRET signal decrease. DMSO treated and no importin beta (buffer only) wells were used as negative and positive controls respectively. FRET readings were obtained at two time points. FRET reading prior to importin beta addition (pre-read) were used flag potential compound interference; FRET reading after importin beta addition (post-read) were used to identify inhibitors using the FRET ratio parameter.
NCGC Assay Protocol Summary: Two and a half uL/well of Rango-buffer solution (50 nM Rango, 1x PBS, 1mM DTT, 0.02% Tween-20, 0.1% BSA final concentrations) was dispensed into 1536-well assay plates (Greiner, solid black medium-binding plates) with Aurora Discovery BioRAPTR Flying Reagent Dispenser (FRD; Beckton-Dickenson). Compound solution (23 nL) was transferred to the assay plate using Kalypsys pin tool equipped with a 1536-pin tool and incubated at room temperature for 5 min followed by a FRET pre-read using the PerkinElmer Envision plate reader. Two and a half uL/well of Importin beta - buffer solution (0.125 microM importin beta, 1x PBS, 1mM DTT, 0.02% Tween-20, 0.1% BSA final concentrations) were then added and incubated at room temperature giving a final reaction volume of 5uL. After 45min FRET post-read was obtained via the Envision plate reader using the same optics and settings as the pre-read (CFP/YFP optimized dual optical module D450/D505; excitation mirror CFP 430/24 nm; and emission filters CFP 486/10 nm and YFP 530/10 nm).
For `CN1CCCCC1COC(=O)C1(O)c2ccccc2CCc2ccccc21` (stereo not drawn), the inhibition of complex formation is inactive: 1.82%.
In the case of `COc1ccccc1OP(C)(=O)Nc1c(C)cccc1C` (stereo not drawn), the inhibition of complex formation was inactive: 0.688%.
For `O=P1(Nc2ncccn2)COc2ccccc2OC1`, the inhibition of complex formation was inactive: 2.58%.
Then `O=[As](O)(c1cccs1)c1cccs1`, with inactive: 4.78%.
Take `Cc1ccc(OCC(=O)OC2CN3CCC2CC3)cc1` (stereo not drawn): the inhibition of complex formation is inactive: -0.173%.
Then `NS(=O)(=O)c1cccc(NC(=O)COC(=O)C(O)(c2ccccc2)c2ccccc2)c1`, with inactive: -1.19%.
As to `O=P1(Nc2ccc(Br)cn2)COc2ccccc2OC1`, the inhibition of complex formation was inactive: 4.08%.
Then `CCCOc1ccc(NP(C)(=O)Oc2ccc(Cl)cc2)cc1` (stereo not drawn), with inactive: -1.95%; and `Nc1cccc([As](=O)(O)c2ccccc2)c1`, with inactive: 2.04%.
Then `CP(=O)(Nc1ccc(SC(F)(F)F)cc1)Oc1ccccc1` (stereo not drawn), with inactive: 2.88%; and `COc1cc(C2NCCC3(OCCO3)C2(C)C)cc(OC)c1OC.O=[N+]([O-])c1cc([N+](=O)[O-])c(O)c([N+](=O)[O-])c1` (stereo not drawn), with inactive: 0.833%.
Then `Cc1nn(-c2ccccc2)c2c1P(=O)(N1CCOCC1)N(C)C(c1ccccc1)=N2` (stereo not drawn), with inactive: 1.03%; and `Cc1ccc(C(=O)OC2CN3CCC2CC3)cc1` (stereo not drawn), with inactive: -0.194%.
Turning to `CC1CCC(C(C)C)C(OP(=O)(Nc2ccccn2)c2ccccc2)C1` (stereo not drawn), the inhibition of complex formation was inactive: 2.73%.
Then `O=C(/C=C/c1ccccc1)OC1CN2CCC1CC2` (stereo not drawn), with inactive: 4.4%; and `CCCC1OP(=O)(Nc2ccccc2)OCC1CC` (stereo not drawn), with inactive: 0.754%.
Then `CC1=C2N=C(C=C3N=C(C(C)=C4[N-][C@@](C)([C@@H]5N=C1[C@](C)(CCC(=O)NC[C@@H](C)OP(=O)([O-])O[C@H]1[C@@H](O)[C@@H](n6cnc7cc(C)c(C)cc76)O[C@@H]1CO)[C@H]5CC(N)=O)[C@@](C)(CC(N)=O)[C@@H]4CCC(N)=O)[C@@](C)(CC(N)=O)[C@@H]3CCC(N)=O)C(C)(C)[C@@H]2CCC(N)=O.[C-]#N.[Co+3]`, with inactive: -1.29%.
Then `CN(C)C1(CNC(=O)c2ccc(S(C)(=O)=O)cc2)CCCCC1`, with inactive: 6.35%; and `O=[N+]([O-])c1cc([N+](=O)[O-])c(Nc2nnnn2CCO)c([N+](=O)[O-])c1`, with inactive: 5.46%; and `COc1ccccc1CNC(=O)COC(=O)C(O)(c1ccccc1)c1ccccc1`, with inactive: 1.66%.
As for `O=[N+]([O-])c1cc([N+](=O)[O-])c(-c2cnn(-c3ccccc3)c2)c([N+](=O)[O-])c1`, the inhibition of complex formation was inactive: 0.0779%.
Regarding `Cc1nc2ccc3ccccc3c2s1.O=[N+]([O-])c1cc([N+](=O)[O-])c(O)c([N+](=O)[O-])c1`, the inhibition of complex formation is inactive: 3.83%.
On to `CC1(CBr)Cn2c(nc3ccccc3c2=O)S1` (stereo not drawn), for which the inhibition of complex formation was inactive: -0.0418%.
Then `CN(C(=O)Cc1ccc(Cl)c(Cl)c1)[C@@H]1CCCC[C@H]1N1CCCC1`, with inactive: -1.73%.
With `CC(C)/C=N\N=C(\N)N[N+](=O)[O-]`, the inhibition of complex formation was inactive: -2.96%.
For the compound `CCOP(=O)(Nc1ccc(C)cn1)OCC`, the inhibition of complex formation was inactive: 1.68%.
Then `CN(CCCl)Cc1cc(Cl)c(NC2=NCCN2)c(Cl)c1`, with inactive: 4.54%; and `CCC1=CC2Cc3nc4ccc(Cl)cc4c(N)c3C(C1)C2` (stereo not drawn), with inactive: 2.18%; and `O=P1(Nc2ccccn2)COc2ccccc2OC1`, with inactive: -0.449%.
On to `O=[N+]([O-])c1cc([N+](=O)[O-])c(-n2nnc3ccccc32)c([N+](=O)[O-])c1`, for which the inhibition of complex formation is inactive: 0.372%.
Take `CCOP(=O)(NC(=NC(C)c1ccccc1)NC(C)c1ccccc1)OCC` (stereo not drawn): the inhibition of complex formation was inactive: -0.394%.
Then `CC(C)(C)C(=O)NC(Sc1ncccn1)C(Cl)(Cl)Cl` (stereo not drawn), with inactive: -3.44%.
Turning to `Cc1ccc(C)c(NP(C)(=O)Oc2ccccc2)c1` (stereo not drawn), the inhibition of complex formation is inactive: -0.308%.
Then `Cc1cc(C)cc(OP(C)(=O)Nc2ccccn2)c1` (stereo not drawn), with inactive: -2.57%.
Then `CP(=O)(Nc1cccc(Br)c1)Oc1ccccc1` (stereo not drawn), with inactive: 0.502%; and `Nc1cccc2c([As](=O)(O)O)cccc12`, with inactive: 0.209%; and `Cc1ccc(NCCc2c([N+](=O)[O-])cc([N+](=O)[O-])cc2[N+](=O)[O-])cc1`, with inactive: 0.339%.
Then `CCOP(=O)(Nc1cccc2ccccc12)OCC`, with inactive: -0.441%; and `O=[As](O)(O)c1cccnc1`, with inactive: 4.52%; and `COc1cc(C(=O)NCC2(N3CCOCC3)CCCCC2)cc(Cl)c1OC(C)C`, with inactive: 0.309%.
With `CS(=O)(=O)c1ccc(Cl)c(NC(=O)COC(=O)C(O)(c2ccccc2)c2ccccc2)c1`, the inhibition of complex formation is inactive: 1.08%.
In the case of `COc1ccccc1OP(C)(=O)Nc1cccc(Br)c1` (stereo not drawn), the inhibition of complex formation is inactive: -6.73%.
In the case of `O=C(OC1CN2CCC1CC2)c1ccc(Cl)cc1` (stereo not drawn), the inhibition of complex formation is inactive: 0.704%.
Turning to `CCOC(=O)c1ccc(NP(C)(=O)Oc2cc(C)cc(C)c2)cc1` (stereo not drawn), the inhibition of complex formation is inactive: -3.16%.
As for `Cc1cccc(OCC(=O)OC2CN3CCC2CC3)c1` (stereo not drawn), the inhibition of complex formation is inactive: 1.29%.
Take `O=[As](O)(c1cccc(O)c1)c1cccc(O)c1`: the inhibition of complex formation was inactive: 1.2%.
Then `Cc1cc(C)cc(OP(C)(=O)Nc2ccc(C)cc2C)c1` (stereo not drawn), with inactive: 4.75%.
Then `NC(=O)Nc1ccc([As](=O)(O)O)cc1`, with inactive: 7.55%; and `O=[N+]([O-])c1ccc2c(c1)nnn2O`, with inactive: -2.83%; and `CN(C)C(=O)c1cc([N+](=O)[O-])cc2c1-c1c(cc([N+](=O)[O-])cc1[N+](=O)[O-])C2=O`, with inactive: -2.3%.
Then `CC1=NCCc2c1[nH]c1ccccc21.O=[N+]([O-])c1cc([N+](=O)[O-])c(O)c([N+](=O)[O-])c1`, with inactive: 1.24%; and `CN(C(=O)Cc1ccc(Cl)c(Cl)c1)[C@H]1CC[C@@]2(CCCO2)C[C@@H]1N1CCCC1`, with inactive: -3.3%; and `N#CCCN(C(=O)COC(=O)C(O)(c1ccccc1)c1ccccc1)c1ccc(F)cc1`, with inactive: -3.19%.
Consider `CN(C(=O)Cc1ccccc1)[C@@H]1CC[C@]2(CCCO2)C[C@H]1N1CCCC1`, for which the inhibition of complex formation was inactive: 0.288%.
Then `CCOP1(=S)c2c(C)nn(CCC#N)c2N=C(c2ccc(F)cc2)N1C` (stereo not drawn), with inactive: 2.79%; and `CCOP1(=S)c2c(C)nn(CCC#N)c2N=C(c2ccccc2F)N1C` (stereo not drawn), with inactive: 0.61%.
For `O=P(Nc1nccs1)(Oc1ccccc1)Oc1ccccc1`, the inhibition of complex formation was inactive: -4.72%.
Then `O=P(Nc1nccs1)(c1ccccc1)c1nc2ccccc2s1` (stereo not drawn), with inactive: -0.422%.
Turning to `O=C(O)COc1ccc([As](=O)(O)O)cc1[N+](=O)[O-]`, the inhibition of complex formation was inactive: 4.88%.
Turning to `Nc1ccccc1[As](=O)(O)c1ccccc1`, the inhibition of complex formation was inactive: -1.39%.
Then `COc1ccccc1OP(C)(=O)Nc1ccc(C)cc1` (stereo not drawn), with inactive: -0.803%; and `COC(=O)C1(C)COP(=O)(N2CCCCCC2)OC1` (stereo not drawn), with inactive: -0.253%; and `CC(C)c1ccc(OP(=O)(Nc2ccccn2)Oc2ccccc2F)cc1` (stereo not drawn), with inactive: 5.75%.
On to `Cc1ccc(NP(C)(=O)Oc2ccccc2)c(C)c1` (stereo not drawn), for which the inhibition of complex formation was inactive: 0.724%.
Then `CCOC(=O)c1ccc(NP(C)(=O)Oc2ccccc2)cc1` (stereo not drawn), with inactive: -4.42%; and `ClCCSc1nnc(-c2cccnc2)o1`, with inactive: 4.6%; and `Cc1cc(C)cc(OP(C)(N)=O)c1` (stereo not drawn), with inactive: -1.03%.
As to `CC(C)NC(=O)NP(=O)(Oc1ccccc1)Oc1ccccc1`, the inhibition of complex formation was inactive: 5.87%.
For `COc1ccccc1OP(C)(=O)Nc1cc(Cl)ccc1C` (stereo not drawn), the inhibition of complex formation is inactive: -0.731%.
Then `O=C(OC1CN2CCC1CC2)c1cccc2[nH]cnc12` (stereo not drawn), with inactive: 1.86%.
Then `CCN(CC)C(=S)SC(NC=O)C(Cl)(Cl)Cl` (stereo not drawn), with inactive: -0.768%; and `COc1ccc(OP(C)(=O)Nc2cccc(F)c2)cc1` (stereo not drawn), with inactive: -0.407%; and `O=[N+]([O-])c1cc([N+](=O)[O-])c(-c2ccn[nH]2)s1`, with inactive: 0.819%.
Turning to `C[As](=O)(O)c1cccc(C(=O)O)c1`, the inhibition of complex formation is inactive: -0.331%.
Then `O=[As](O)(c1ccc(O)cc1)c1ccccc1O`, with inactive: -1.29%; and `O=[N+]([O-])c1ccc(-c2cc([N+](=O)[O-])c(O)c([N+](=O)[O-])c2)cc1`, with inactive: 5.12%; and `COc1cc(C(=O)NCC2(N3CCOCC3)CCCCC2)ccc1OCC(C)C`, with inactive: 1.66%.
Then `O=[N+]([O-])c1cc([N+](=O)[O-])c(Nc2cccnc2)c([N+](=O)[O-])c1`, with inactive: -2.59%; and `O=[N+]([O-])c1ccc2c(c1)C=Nc1ccccc1O2`, with inactive: 2.48%.
Regarding `Cc1ccc2nc3c(c(C)c2c1)CC(C(Cl)Cl)S3` (stereo not drawn), the inhibition of complex formation is inactive: 0.426%.
Then `Cc1ccc(OP(=O)(Nc2ccc([N+](=O)[O-])cn2)Oc2ccc(C)cc2)cc1`, with inactive: -2.24%; and `CC(C)(C)c1ccc(OP(C)(=O)Nc2ccc(SC(F)(F)F)cc2)cc1` (stereo not drawn), with inactive: -0.0351%.
Then `Cc1cccc(C)c1OP(C)(N)=O` (stereo not drawn), with inactive: 1.36%; and `COc1ccc(N/C(=N/P(=O)(N2CCOCC2)N2CCOCC2)N2CCOCC2)cc1`, with inactive: -1.06%.
Then `O=[N+]([O-])c1cc(Oc2ccc([N+](=O)[O-])cc2C(F)(F)F)cc([N+](=O)[O-])c1`, with inactive: -3.13%.
In the case of `O=C(OC1CN2CCC1CC2)C12CC3CC(CC(C3)C1)C2` (stereo not drawn), the inhibition of complex formation was inactive: 0.518%.
Then `CCN(CC)CCCOC(=O)C(O)(c1ccccc1)c1ccccc1`, with inactive: 0.212%; and `Cc1cc(=O)[nH]c(N[N+](=O)[O-])n1`, with inactive: -0.654%; and `Cc1c2c(nc3ccccc13)SC(C(Cl)Cl)C2` (stereo not drawn), with inactive: 1.27%.
Then `COc1ccc2nc(NP(=O)(c3ccccc3)c3ccccc3)sc2c1`, with inactive: -2.29%.
Then `COc1cc(I)ccc1[As](=O)(O)O`, with inactive: 4.13%; and `O=P1(N(CCCl)CCCl)OCCCN1CCCl` (stereo not drawn), with inactive: 2.62%.
Regarding `O=P1(N(CCCl)CCCl)Nc2ccccc2N1`, the inhibition of complex formation is inactive: 1.9%.
